Measurements reported in patent publication US20090123377A1, “Method for Testing Substances or Mixtures of Substances,Use of Said Method and Corresponding Test Kits” (BASF AKTIENGESELLSCHAFT, priority 2005, published 2009).
This is a selection: effects in other tests are not listed, and their absence says nothing.

Test system: L-FABP
Test: Immunological determination of L-FABP by Western blotting in liver extracts of exposed rats
Settings: rat liver extract, high dosage, 10 days, versus control after 10 days

Cc1ccc([N+](=O)[O-])cc1[N+](=O)[O-]
L-FABP level by Western blotting: no change in the L-FABP level
